Values quoted from earlier work, collected in article PMC5424110, “Preclinical anti-arthritic study and pharmacokinetic properties of a potent histone deacetylase inhibitor MPT0G009” (Cell Death & Disease, 2014).

System: osteoclastogenesis
Design: method as in PMID 19766111
Details: cited from earlier work

Structure (SMILES): O=C(CCCCCCC(=O)Nc1ccccc1)NO [SAHA, suberoylanilide hydroxamic acid, reference compound]
- concentration that suppresses osteoclastogenesis in vitro: 300 nM
